Experimental data reported in patent US20110136877A1, “2-PHENYL PHENOXYACETIC ACIDS USEFUL FOR TREATING INFLAMMATORY DISORDERS” (LIGAND PHARMACEUTICALS INC., priority 2008, published 2011).

Chains of the proteins cited; added tags and fusions are not shown. Lines headed by an entry give the natural chain unless they say otherwise; changes in a name come on top.
UniProt Q9Y5Y4: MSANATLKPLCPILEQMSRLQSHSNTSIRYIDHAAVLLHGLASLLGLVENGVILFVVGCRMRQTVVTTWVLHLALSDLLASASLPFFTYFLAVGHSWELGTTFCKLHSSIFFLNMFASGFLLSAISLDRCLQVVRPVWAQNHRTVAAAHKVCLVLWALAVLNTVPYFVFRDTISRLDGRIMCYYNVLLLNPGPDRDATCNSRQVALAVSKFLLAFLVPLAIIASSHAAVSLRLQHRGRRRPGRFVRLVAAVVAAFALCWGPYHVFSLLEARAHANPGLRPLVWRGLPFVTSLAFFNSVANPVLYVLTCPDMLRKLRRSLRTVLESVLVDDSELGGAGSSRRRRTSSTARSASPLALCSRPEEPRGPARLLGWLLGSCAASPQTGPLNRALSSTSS

Target: human CRTH2 (Homo sapiens, UniProt Q9Y5Y4)
Experiment: [35S]GTPγS binding assay (SPA)
Type: biochemical
Settings: read-out: CRTH2 GTPγS assay IC50; membranes from CHO-K1 cells stably expressing human CRTH2; 60 nM DHK-PGD2
Procedure: [^35S]GTPγS Binding Assay
SPA [^35S]GTPγS binding was performed on membranes from CHO-K1 cells stably expressing human CRTH2. To a white, clear-bottomed 384-well plate, 4 μg membrane protein was incubated in the binding buffer (20 mM HEPES, pH 7.4, 10 mM MgCl2, 300 mM NaCl, 0.2% BSA) with 60 nM DHK-PGD2, 500 pM [^35S]GTPγS, 10 μM GDP, and 100 μg wheat germ agglutinin-coupled SPA beads (GE Healthcare) with and without increasing concentrations of compounds. The final assay volume was 40 μL and contained 1% DMSO. Samples were incubated for 2 h at ambient temperature. Plates were centrifuged 5 min at 1500 rpm. Plates were read after an additional 4 h using the Trilux 1450 Microbeta (PerkinElmer) with a 30 sec/well reading time.

CN(Cc1cccc(-c2cc(C(F)(F)F)ccc2OCC(=O)O)c1)C(=O)Oc1cccnc1
IC50: 100 to 1000 nM
